Reference: ChEMBL document CHEMBL1128285, “Search for new purine- and ribose-modified adenosine analogues as selective agonists and antagonists at adenosine receptors” (J Med Chem, 1995)

Protein sequences, listed by entry. Tags and fused reporters are not part of them.
UniProt P25099, whole entry: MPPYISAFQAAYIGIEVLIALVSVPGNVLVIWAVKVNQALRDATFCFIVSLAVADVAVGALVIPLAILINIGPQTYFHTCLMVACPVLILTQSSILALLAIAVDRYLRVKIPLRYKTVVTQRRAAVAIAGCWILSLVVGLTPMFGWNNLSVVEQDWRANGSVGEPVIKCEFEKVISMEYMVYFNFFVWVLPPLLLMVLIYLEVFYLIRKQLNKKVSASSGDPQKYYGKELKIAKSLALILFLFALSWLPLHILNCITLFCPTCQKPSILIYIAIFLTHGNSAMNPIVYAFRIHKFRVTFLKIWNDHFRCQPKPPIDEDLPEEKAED

Target: Adenosine receptor A1 (Rattus norvegicus, UniProt P25099)

Nc1nccc2c1ncn2[C@@H]1O[C@H](CO)[C@@H](O)[C@H]1O
Ki: 21.5 µM
